Measured values reported in patent publication US9517279B2, “2-alkoxy-11-hydroxyaporphine derivatives and uses thereof” (The McLean Hospital Corporation, priority 2010, dated 2016).

Amino acid sequences for entries named in this document (tags omitted).
UniProt P18901, whole entry: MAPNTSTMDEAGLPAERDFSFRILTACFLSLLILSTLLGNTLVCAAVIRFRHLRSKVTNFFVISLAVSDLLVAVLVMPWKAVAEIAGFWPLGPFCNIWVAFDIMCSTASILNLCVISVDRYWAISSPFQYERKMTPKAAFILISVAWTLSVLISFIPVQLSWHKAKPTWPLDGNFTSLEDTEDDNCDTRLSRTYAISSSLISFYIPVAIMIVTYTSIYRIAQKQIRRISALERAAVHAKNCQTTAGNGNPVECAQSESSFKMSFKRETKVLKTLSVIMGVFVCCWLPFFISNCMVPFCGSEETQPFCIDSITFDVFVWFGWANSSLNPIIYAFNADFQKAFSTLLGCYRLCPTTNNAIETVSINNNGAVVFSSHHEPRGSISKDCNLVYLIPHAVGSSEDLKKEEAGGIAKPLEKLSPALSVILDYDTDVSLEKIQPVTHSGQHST

Experiments:
D1^high = target: T1, D1^high (Rattus norvegicus, UniProt P18901); test: Competitive radioreceptor binding, D1 high-affinity state, rat striatum [3H]SCH23390
T1 construct: membrane-containing homogenates of rat corpus striatum tissue; from tissue; host or cells: rat corpus striatum

D1^low = target: T2, D1^low (Rattus norvegicus, UniProt P18901); test: Competitive radioreceptor binding, D1 low-affinity state, rat striatum [3H]SCH23390
T2 construct: membrane-containing homogenates of rat corpus striatum tissue; from tissue; host or cells: rat corpus striatum

In the case of `CN1CCc2cc(OCCF)cc3c2[C@H]1Cc1cccc(O)c1-3` [11g, R(−)-2-(2-fluoroethoxy)-11-hydroxyaporphine], the “Ki D1^high” value (D1^high) is reported as “No D1^high” and the Ki (D1^low) is reported as 0.34 ± 0.044 µM.
